The values that follow come from patent publication US20110015371A1 (Vertex Pharmaceuticals Incorporated, priority 1994, published 2011).

The subject of this test is Human Peripheral Blood Mononuclear Cells (PBMC) or Enriched Adherent Mononuclear Cells. The test is described as follows: Cell assay: IL-1β assay with human PBMC or enriched adherent mononuclear cells. Particulars: read-out: Cell IC50; Example 6 table; LPS-stimulated cells, mature IL-1β in supernatant by ELISA. For orientation: In an ELISA, binding on a coated surface is turned into a signal by an enzyme label.

By IC50 is commonly meant the concentration at which inhibition is half-maximal.

As to `CCC(=O)[C@H](CC(=O)O)NC(=O)Cn1c(Cc2ccccc2)ccc(NC(=O)CCc2ccccc2)c1=O`, the IC50 worked out at 30 µM.
